Molecular target: T1, Syk (Homo sapiens, UniProt P43405)
T1 construct: purchased Promega
Assay: Syk Biochemical Assay (ADP-Glo luminescence)
Details: ATP 40 μM final, 60 minutes, read-out: SYK Biochem IC50
Method: Compounds were serially diluted in 100% DMSO, prior to an intermediate dilution in water. In a low volume white 384-well Proxiplate (Perkin Elmer), 1 μL of compound (0.4% final DMSO) was added to 3 μL of 10 ng/well Syk (Promega) and 0.2 mg/mL Poly-E4Y1 substrate (Promega) in assay buffer (final 40 mM Tris-HCl pH 7.4, 20 mM MgCl2, 0.1 mg/mL BSA) for 5 minutes. The reaction was initiated by addition of 1 μL of ATP (40 μM final) and allowed to proceed for 60 minutes at room temperature. The reaction was terminated by addition of 5 μL of ADP-Glo Reagent Mix (Promega) containing 1 mM MgCl2 for 45 minutes at room temperature. 10 μL of Kinase Detection Reagent (Promega) was added and incubated for 10 minutes at room temperature, before luminescence was measured using an Ensight Multimode Plate Reader (Perkin Elmer).

IC50 | Molecule
25.6 nM | 5-{[(2S,6R)-6-methylmorpholin-2-yl]methoxy}-7-[1-(propan-2-yl)-1H-pyrrol-3-yl]quinoline [Compound 7.21]
25.6 nM | c1cnc2cc(-c3ccn(C4CCC4)c3)nc(OC[C@@H]3CNCCO3)c2c1 [Compound 6.3, 7-(1-cyclobutyl-1H-pyrrol-3-yl)-5-{[(2S)-morpholin-2-yl]methoxy}-1,6-naphthyridine]

From patent US20250263408A1 (Uniquest Pty Ltd, priority 2022, published 2025)
